For this experiment, the target named is MAO-B (Homo sapiens, UniProt P27338). As to the kind of experiment: Inhibition of recombinant human MAO-B, kynuramine fluorometric assay. Format: biochemical.

Amino acid sequences for entries named in this document (tags omitted).
UniProt P27338, whole entry: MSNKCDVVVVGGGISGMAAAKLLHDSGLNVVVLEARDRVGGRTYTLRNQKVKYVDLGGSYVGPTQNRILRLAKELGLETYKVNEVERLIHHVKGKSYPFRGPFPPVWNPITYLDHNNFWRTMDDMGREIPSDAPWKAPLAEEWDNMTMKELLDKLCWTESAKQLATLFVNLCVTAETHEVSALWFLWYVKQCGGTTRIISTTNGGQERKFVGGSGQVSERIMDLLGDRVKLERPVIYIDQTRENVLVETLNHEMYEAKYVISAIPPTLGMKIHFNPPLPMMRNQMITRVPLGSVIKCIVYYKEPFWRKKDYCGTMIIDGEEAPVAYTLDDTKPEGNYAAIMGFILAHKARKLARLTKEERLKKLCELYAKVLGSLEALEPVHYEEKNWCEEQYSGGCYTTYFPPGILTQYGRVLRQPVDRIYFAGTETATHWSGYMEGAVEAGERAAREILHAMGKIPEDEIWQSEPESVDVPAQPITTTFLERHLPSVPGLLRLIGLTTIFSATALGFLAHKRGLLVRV

SMILES strings stand for the structures.

Usually IC50 stands for the point on the concentration scale where inhibition reaches its midpoint. For the molecule `O=C1CCCc2cc(OCc3ccc(Cl)cc3)ccc21` [1g, 6-(4-Chlorobenzyloxy)-1-tetralone], the IC50 was determined as 5.5 ± 0.6 nM.
In the case of `O=C1CCOc2cc(OCc3ccc(Cl)cc3)ccc21` [2f, 7-(4-Chlorobenzyloxy)-4-chromanone] it was 4 ± 0.8 nM.

Values taken from PMC7512223 (Molecular Diversity, 2020).
